## Ab-14 heavy chain CDR variants: yeast mating affinities

Binding partner: SARS-CoV-2 spike HR2 peptide, sequence PDVDLGDISGINAS.

Parent: Ab-14, a human scFv built as VH, three GGGGS repeats, VL. Only the CDRs of the heavy chain vary.
VH: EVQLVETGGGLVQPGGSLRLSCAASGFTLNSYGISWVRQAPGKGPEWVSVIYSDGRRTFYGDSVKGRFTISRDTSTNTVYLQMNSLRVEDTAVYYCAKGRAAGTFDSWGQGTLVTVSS
VL: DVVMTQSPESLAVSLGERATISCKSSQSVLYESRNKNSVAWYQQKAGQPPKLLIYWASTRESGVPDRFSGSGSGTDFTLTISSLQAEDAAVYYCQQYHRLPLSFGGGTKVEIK

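The starting antibody came from a phage panning campaign against this peptide. Designed CDR sequences, proposed from the first random library and measured here. Their group label is 14H_En_Gen (En: ensemble of fine-tuned language models; Gen: genetic algorithm). AlphaSeq pools MATa yeast showing the antibodies with MATalpha yeast showing the peptide. Mating (16 h, 30 °C) was followed by selection of diploids and sequencing of their barcodes. The ratio of observed to expected reads was calibrated, replicate by replicate, on BCL2-family standards whose Kd was known from biolayer interferometry. The assay was run in six technical replicates.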

Each variant is given by its three heavy chain CDRs, as the data file delimits them; those of the parent are GFTLNSYGIS, VIYSDGRRTFYGDSVK, GRAAGTFDS.
Values are log10 of the apparent Kd in nM; lower means stronger binding.
Where no diploid with the target was found in that replicate, the entry reads "n.d.": below detection, most likely a poor binder, though not proof of it.
The range of this assay differs from that of the first round, and the authors advise against merging the two.
In the paper, a design with two or fewer of six values counts as a poor binder.
As a blank, each scFv also met three strains without target: over all heavy chain designs, 1% of these pairings were detected, typically at 2.08 and seldom below 0.84. For each scFv, signals with the empty controls are counted beside the result.
The parent sequence was in this pool as ten entries: three were never detected, three once, and four in most replicates, with averages from 0.34 to 2.37.

{"CDR-H1": "GFDLDEYGIS", "CDR-H2": "VIYADGKRTAYTDSVK", "CDR-H3": "GTNAGTFDV", "log10 Kd, replicates": "-0.72 / -0.39 / -0.35 / 0.09 / -0.10 / -0.79", "control signals": "0/18"}
{"CDR-H1": "GFDLDEYGIS", "CDR-H2": "VIYADGVRTAYSDSVK", "CDR-H3": "GNVAGTFDM", "log10 Kd, replicates": "-0.27 / -0.61 / -0.49 / -0.66 / -0.43 / -0.03", "control signals": "0/18"}
{"CDR-H1": "GFDLNEYGIS", "CDR-H2": "VIYADGSRTAYAESVK", "CDR-H3": "GENAGTFDV", "log10 Kd, replicates": "0.34 / 0.18 / 0.57 / 0.55 / 0.30 / 0.21", "control signals": "0/18"}
{"CDR-H1": "GFDLNEYGIS", "CDR-H2": "VIYADGRRTAYSDSVK", "CDR-H3": "GENAGTFDI", "log10 Kd, replicates": "n.d. / n.d. / n.d. / n.d. / n.d. / n.d.", "control signals": "0/18"}
{"CDR-H1": "GFDLNEYGIS", "CDR-H2": "VIYADGRRTFYADSVK", "CDR-H3": "GENAGTFDL", "log10 Kd, replicates": "0.72 / 0.11 / 0.08 / 0.12 / 0.68 / 0.38", "control signals": "0/18"}
{"CDR-H1": "GFDLNEYGIS", "CDR-H2": "VIYADGMRTFYADSVK", "CDR-H3": "GKNAGTFDV", "log10 Kd, replicates": "-0.04 / -0.36 / -0.62 / -0.96 / -0.41 / -0.39", "control signals": "0/18"}
{"CDR-H1": "GFDLDEYGIS", "CDR-H2": "VIYADGMRTSYADSVK", "CDR-H3": "GNQAGTFDV", "log10 Kd, replicates": "0.11 / -0.10 / -0.25 / -0.49 / -0.27 / -0.03", "control signals": "0/18"}
{"CDR-H1": "GFDLNEYGIS", "CDR-H2": "VIYADGVRTAYSDSVK", "CDR-H3": "GNTAGTFDI", "log10 Kd, replicates": "0.11 / -0.18 / 0.06 / -0.05 / -0.08 / 0.21", "control signals": "0/18"}
{"CDR-H1": "GFDLNEYGIS", "CDR-H2": "VIYADGRRTAYADSVK", "CDR-H3": "GNQAGTFDI", "log10 Kd, replicates": "-0.60 / -1.08 / -0.11 / 0.36 / 0.13 / -0.19", "control signals": "0/18"}
{"CDR-H1": "GFDLNEYGIS", "CDR-H2": "VIYADGMRTAYADSVK", "CDR-H3": "GVNAGTFDL", "log10 Kd, replicates": "-0.04 / -0.72 / -1.08 / -0.98 / -1.12 / -0.92", "control signals": "0/18"}
{"CDR-H1": "GFDLNEYGIS", "CDR-H2": "VIYADGVRTAYSDSVK", "CDR-H3": "GQNAGTFDT", "log10 Kd, replicates": "0.69 / -0.48 / 0.84 / -0.34 / -0.21 / 0.45", "control signals": "0/18"}
{"CDR-H1": "GFDLDEYGIS", "CDR-H2": "VIYADGVRTYYADSVK", "CDR-H3": "GNVAGTFDL", "log10 Kd, replicates": "-0.16 / 0.11 / -0.70 / -0.81 / -0.40 / -0.49", "control signals": "0/18"}
{"CDR-H1": "GFDLNEYGIS", "CDR-H2": "VIYADGKRTAYAESVK", "CDR-H3": "GNQAGTFDV", "log10 Kd, replicates": "-0.61 / -0.72 / -1.03 / -0.34 / -0.48 / -0.85", "control signals": "0/18"}
{"CDR-H1": "GFDLNEYGIS", "CDR-H2": "VIYADGMRTAYADSVK", "CDR-H3": "GKVAGTFDV", "log10 Kd, replicates": "-0.19 / -0.18 / n.d. / -1.41 / -0.10 / 0.60", "control signals": "0/18"}
{"CDR-H1": "GFDLNEYGIS", "CDR-H2": "VIYADGVRKAYADSVK", "CDR-H3": "GNVAGTFDM", "log10 Kd, replicates": "-1.15 / -1.61 / -1.57 / -1.87 / -1.32 / -1.40", "control signals": "0/18"}
{"CDR-H1": "GFDLNEYGIS", "CDR-H2": "VIYADGMRTAYADSVK", "CDR-H3": "GKVAGTFDI", "log10 Kd, replicates": "-0.81 / -0.73 / -0.70 / -0.80 / -0.79 / -0.82", "control signals": "0/18"}
{"CDR-H1": "GFDLNEYGIS", "CDR-H2": "VIYADGVRTAYTDSVK", "CDR-H3": "GENAGTFDM", "log10 Kd, replicates": "0.26 / -0.11 / 0.51 / -0.46 / -0.58 / 0.09", "control signals": "0/18"}
{"CDR-H1": "GFDLNEYGIS", "CDR-H2": "VIYADGMRTAYSDKVK", "CDR-H3": "GNVAGTFDM", "log10 Kd, replicates": "-0.17 / 0.39 / -0.14 / -0.21 / -0.01 / 0.45", "control signals": "0/18"}
{"CDR-H1": "GFDLNEYGIS", "CDR-H2": "VIYADGLRTAYADDVK", "CDR-H3": "GQNAGTFDV", "log10 Kd, replicates": "-0.37 / 0.08 / 0.02 / -0.11 / -0.20 / 0.59", "control signals": "0/18"}
{"CDR-H1": "GFDLDEYGIS", "CDR-H2": "VIYADGSRTAYSDSVK", "CDR-H3": "GNTAGTFDV", "log10 Kd, replicates": "0.09 / -0.02 / -0.53 / -0.49 / -0.32 / -0.15", "control signals": "0/18"}
{"CDR-H1": "GFDLNEYGIS", "CDR-H2": "VIYADGRRTAYADTVK", "CDR-H3": "GENAGTFDV", "log10 Kd, replicates": "0.61 / 1.05 / -0.31 / -0.40 / -0.05 / 0.21", "control signals": "0/18"}

The 2 strongest on average among those seen in every replicate, once more:

{"CDR-H1": "GFDLNEYGIS", "CDR-H2": "VIYADGVRKAYADSVK", "CDR-H3": "GNVAGTFDM", "log10 Kd, replicates": "-1.15 / -1.61 / -1.57 / -1.87 / -1.32 / -1.40", "control signals": "0/18"}
{"CDR-H1": "GFDLNEYGIS", "CDR-H2": "VIYADGMRTAYADSVK", "CDR-H3": "GVNAGTFDL", "log10 Kd, replicates": "-0.04 / -0.72 / -1.08 / -0.98 / -1.12 / -0.92", "control signals": "0/18"}

Reference: Li et al. 2023, doi:10.1038/s41467-023-39022-2. File: FLAb, binding data.